Here are results for one molecule from patent US5614198A, “Bowman-Birk Inhibitor compositions for treatment of inflammatory disease” (The Trustees of the University of Pennsylvania, priority 1995, dated 1997).

For this experiment, the system named is proteolytic activity in UC lesions. In words: gelatin zymogram protease assay of UC lesion homogenates from DNBS/ethanol rat colon. The note with it: FIG. 2, DFP 1 mM, BBI 1.25 μM, EDTA 10 mM.

With `O=C(O)CN(CCN(CC(=O)O)CC(=O)O)CC(=O)O`, the “activity of UC lesion column with no protease inhibitor relative to inhibitor column (scanning densitometry)” value was 1.6 times.
